# AlphaSeq binding of Ab-91 heavy chain variants to a spike HR2 peptide

Binding partner: SARS-CoV-2 spike HR2 peptide, sequence PDVDLGDISGINAS.

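Phage display of a naive human antibody library on the peptide gave the parent. AAYL51 was designed without a model: most single CDR substitutions and a random sample of double and triple ones. AlphaSeq pools MATa yeast showing the antibodies with MATalpha yeast showing the peptide. Binding brings cells together so that they mate, and sequencing counts the barcode pairs among the diploids. A regression on co-assayed BCL2-family reference pairs converts the normalised counts of each replicate to an apparent Kd. Mating was done three times.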

Parent: Ab-91, a human scFv built as VL, a 15-residue (Gly4Ser)3 linker, VH. Only the CDRs of the heavy chain vary.
VL: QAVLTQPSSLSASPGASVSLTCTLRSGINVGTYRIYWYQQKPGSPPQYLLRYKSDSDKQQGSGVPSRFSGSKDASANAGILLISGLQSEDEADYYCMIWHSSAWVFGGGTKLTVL
VH: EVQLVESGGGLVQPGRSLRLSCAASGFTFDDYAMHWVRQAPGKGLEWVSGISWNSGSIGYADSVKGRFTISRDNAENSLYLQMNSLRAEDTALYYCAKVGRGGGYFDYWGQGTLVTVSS

Variants are written as CDR1, CDR2 and CDR3 of the heavy chain (limits as in the source). Parent: GFTFDDYAMH, GISWNSGSIGYADSVK, VGRGGGYFDY.
The read-out is the apparent dissociation constant on a log10 scale (nM): the lower, the stronger.
"nd" marks a missing value. The strain was present, yet no cells mated with the target were sequenced in that replicate, which points to weak or no binding.
Nonspecific signal, from three strains lacking the peptide, appeared in 21% of pairings of library AAYL51, centred on 4.54 (5% of these signals below 3.26); values are not corrected for it. The control count says in how many pairings with the empty strains this scFv gave a signal, with their mean in brackets.

CDR-H1	CDR-H2	CDR-H3	log10 Kd, replicates	control signals
HFTFDDYAMH	GKSWNSGSIGYADSVK	VGRGGGYFDY	4.45 / nd / 3.79	6/9 (4.82)
GFTFDHYAMH	GISWQSGSIGYADSVK	VLRGGGYFDY	nd / nd / nd	0/9
GFTFDDYAMH	GISWNSGSIGYMDSVN	PGRGGGYFDY	nd / nd / nd	1/9 (2.82)
GFIGDDYAMH	GTSWNSGSIGYADSVK	VGRGGGYFDY	4.92 / nd / 4.42	4/9 (4.09)
PFTFDDYAMI	GITWNSGSIGYADSVK	VGRGGGYFDY	5.36 / nd / nd	2/9 (4.54)
GFTFDDYAMH	GISWNSGSIGYYDSVK	VGRGGVYFDD	3.41 / 4.19 / 3.42	1/9 (3.77)
RFTFDDYAMH	GISWVSGSIGYADSVK	VGRGGGYFYY	nd / nd / nd	1/9 (3.62)
GRTFDWYAMH	GISWNVGSIGYADSVK	VGRGGGYFDY	nd / 4.99 / nd	6/9 (4.66)
GFTFDDYAMH	GWSWNSGSIGYASSVK	VGRGGGYFDR	nd / nd / nd	1/9 (4.65)
GATFDDYAMH	GISWNSGSIGYADSVK	VGRGGGQFDL	nd / nd / nd	0/9
DFTFDDYAMH	GISWNSLSGGYADSVK	VGRGGGYFDY	6.04 / 4.20 / nd	6/9 (5.46)
GFTYDDYAMH	GIDWNSGSIGYFDSVK	VGRGGGYFDY	4.49 / nd / 4.40	2/9 (3.80)
GSTFDDYAMH	GISINSGSIGYADSVK	VGREGGYFDY	nd / nd / nd	0/9
GFTFDDYAMH	GISWNSGSIGYADSVK	VGRGDGYFCA	3.34 / 4.51 / nd	2/9 (3.71)
SFTFDDYAMH	GISWNSGSIGHADSVK	VGRGGGYFDY	nd / nd / nd	2/9 (3.74)
PFTFDDYLMN	GISWNSGSIGYADSVK	VGRGGGYFDY	4.58 / 6.11 / 5.28	5/9 (4.70)
GFTFMDYAMH	GISWNSGGIGYADSVK	VGRGGGYFDY	1.80 / 2.04 / 1.93	2/9 (4.10)
GFLFDDYAMH	GIHWNSGSIGYADSSK	VGRGGGYFDY	nd / nd / nd	1/9 (4.26)
GFTFDDMAMS	GISWNSGSIGYNDSVK	VGRGGGYFDY	4.53 / nd / 4.36	2/9 (5.53)
LFWFDDMAMH	GISWNSGSIGYADSVK	VGRGGGYFDY	5.45 / nd / nd	1/9 (3.95)
GFTFDDIAMQ	GISWNSGSIGYADSVY	VGRGGGYFDY	4.74 / 4.23 / 5.66	4/9 (5.31)
GFTFDDYAMH	GISWNSGSIGYADPAK	VGRGGGYFDY	2.49 / nd / nd	0/9
GFTFDDYAMH	GIYWNEGSIGYADSVK	VLRGGGYFDY	nd / nd / nd	1/9 (4.20)
VFTFDDYAMH	GISWNAGSIGYADSVK	VGRGGGYFDY	1.06 / 1.14 / 0.79	3/9 (4.58)
TFTFDDYAMH	GISWNNGSIGYADSVK	VMRGGGYFDY	nd / nd / 3.51	0/9
GFTFDDWAMH	GISWNSGSIGYADSVK	PGRGGGYFYY	nd / 4.72 / nd	3/9 (4.33)
GFTSDDYAMH	GISWNSGSPGYADSVK	VGRGGGYFDY	nd / 4.49 / nd	1/9 (4.42)
HFTFQDYAMH	GISWNSGSIGYADSVK	VGRGGGYFDY	1.40 / 1.52 / 1.14	2/9 (4.57)
GFTFDDYADH	GISWNSGSIGYADSVK	GGRGGGYMDY	3.24 / nd / nd	1/9 (4.06)
GFTFDDYAMH	GISWNSGSVGYFDSVK	VGRGGGYFDV	3.42 / 2.98 / 2.32	0/9
GFTFDDYARH	GKSWNSGSIGYADSVK	VGRGGGYFDY	nd / nd / 4.79	2/9 (4.34)
GFTFDDYAMH	GISWNSGSIGYADSWQ	VGRGGGYFDP	5.68 / 4.24 / nd	1/9 (4.34)
GFFFDDMAMH	GISWNSGSIGYNDSVK	VGRGGGYFDY	3.61 / 3.10 / 3.65	0/9
GFTFDDYAMH	KISWNSGQIGYADSVA	VGRGGGYFDY	4.99 / 5.38 / 5.47	4/9 (4.96)
GFTLWDDAMH	GISWNSGSIGYADSVK	VGRGGGYFDY	3.09 / 3.73 / nd	0/9
GFTFHTYAMH	GISWNSGSIGYADSVN	VGRGGGYFDY	0.84 / 1.17 / 0.92	0/9
GFTFDDQAMH	GISWNSWSIGYADSVK	VGRGGQYFDY	nd / nd / nd	2/9 (4.39)
RFFFDDGAMH	GISWNSGSIGYADSVK	VGRGGGYFDY	4.49 / 5.33 / 5.45	6/9 (4.74)
MFTFDDYACH	GISWNSGSIGYASSVK	VGRGGGYFDY	nd / nd / nd	3/9 (4.02)
GFTFHDYAMH	GISWNSGSHGYADSVK	VGRGGTYFDY	nd / nd / nd	0/9
RFTFDDYAMH	GIMWNSGSIGYADSVK	VGRGGGYSDY	4.79 / 6.22 / 5.06	7/9 (4.43)
GFTFDDYAMH	GISWNSGSIGYADSVK	IGPGGGYFSY	2.93 / nd / nd	1/9 (3.43)
GHTFDDYAMH	GISWNSGSIGYADSVK	VGRGGLYFRY	nd / nd / nd	2/9 (3.81)
GFTFDDYAMH	GVSWNSGSIGYADSVK	TGRGGGYFDY	5.85 / 3.99 / nd	1/9 (4.52)
GFTFDDYAMH	GISWNMGSIGYAGSVD	VGRGGGYFDY	2.80 / 3.76 / 3.24	6/9 (4.60)
GFTFDDYAMH	MISWNSGSIMYADSVK	VGRGGGDFDY	nd / nd / nd	1/9 (3.73)
GFTFDDYAGH	GISWNSGSIGIVDSVK	VGRGGGYFDY	nd / nd / nd	2/9 (4.07)
YFTSDYYAMH	GISWNSGSIGYADSVK	VGRGGGYFDY	nd / 4.86 / 4.92	4/9 (4.58)

For reference, 6 entries of the list once more:

CDR-H1	CDR-H2	CDR-H3	log10 Kd, replicates	control signals
SFTFDDYAMH	GISWNSGSIGHADSVK	VGRGGGYFDY	nd / nd / nd	2/9 (3.74)
GFTYDDYAMH	GIDWNSGSIGYFDSVK	VGRGGGYFDY	4.49 / nd / 4.40	2/9 (3.80)
HFTFQDYAMH	GISWNSGSIGYADSVK	VGRGGGYFDY	1.40 / 1.52 / 1.14	2/9 (4.57)
GFTFHTYAMH	GISWNSGSIGYADSVN	VGRGGGYFDY	0.84 / 1.17 / 0.92	0/9
LFWFDDMAMH	GISWNSGSIGYADSVK	VGRGGGYFDY	5.45 / nd / nd	1/9 (3.95)
PFTFDDYAMI	GITWNSGSIGYADSVK	VGRGGGYFDY	5.36 / nd / nd	2/9 (4.54)

Data: MIT Lincoln Laboratory AlphaSeq set, Engelhart et al. 2022, doi:10.1038/s41597-022-01779-4, as distributed in FLAb.